The record followed here is patent US10202345B2, “Substituted azaspiro(4.5)decane derivatives” (priority 2014, dated 2019).

Chains of the proteins cited; added tags and fusions are not shown.
UniProt P35372, whole entry: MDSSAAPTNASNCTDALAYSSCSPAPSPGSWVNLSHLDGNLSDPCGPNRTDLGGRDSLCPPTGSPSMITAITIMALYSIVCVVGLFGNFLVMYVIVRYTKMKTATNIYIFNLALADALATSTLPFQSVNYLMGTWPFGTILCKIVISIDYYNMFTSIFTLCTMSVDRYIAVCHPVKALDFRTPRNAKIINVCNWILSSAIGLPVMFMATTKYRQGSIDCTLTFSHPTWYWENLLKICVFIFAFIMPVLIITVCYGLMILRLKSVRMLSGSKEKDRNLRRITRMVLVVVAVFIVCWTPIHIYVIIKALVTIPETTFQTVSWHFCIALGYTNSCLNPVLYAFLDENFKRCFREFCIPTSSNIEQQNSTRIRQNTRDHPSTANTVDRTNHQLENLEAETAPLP
UniProt P41146, whole entry: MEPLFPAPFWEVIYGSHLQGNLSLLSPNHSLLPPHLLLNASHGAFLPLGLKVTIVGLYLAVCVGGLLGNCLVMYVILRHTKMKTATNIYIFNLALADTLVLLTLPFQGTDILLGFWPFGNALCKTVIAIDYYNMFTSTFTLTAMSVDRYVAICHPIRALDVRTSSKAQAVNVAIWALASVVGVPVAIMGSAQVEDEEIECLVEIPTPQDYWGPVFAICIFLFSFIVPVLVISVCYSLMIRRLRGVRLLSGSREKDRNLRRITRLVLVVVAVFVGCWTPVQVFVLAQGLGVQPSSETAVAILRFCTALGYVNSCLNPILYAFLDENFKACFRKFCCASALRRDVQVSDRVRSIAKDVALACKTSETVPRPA

The Ki is a measure of affinity in units of concentration, obtained from inhibition or displacement.

One assay deals with human μ opiate receptor (Homo sapiens, UniProt P35372). The assay can be described thus: μ opiate receptor binding assay with [3H]-naloxone (WGA-SPA beads). Particulars: for Ki: read-out: Ki (μ) mean [μm], mean; for % inhibition (μ) [1 μM]: test concentration 1 μM.
In the next assay the target is ORL1 receptor (Homo sapiens, UniProt P41146). The assay can be described thus: ORL1 receptor binding assay with 3H-nociceptin/orphanin FQ (WGA-SPA beads). The following applies: for Ki: read-out: Ki (ORL1) mean, mean; for % inhibition (ORL1) [1 μM]: test concentration 1 μM.
Another assay relates to rats. The assay can be described thus: Analgesia in the tail flick (focal ray) test in rats, intravenous administration.

For the molecule `COC(C)(C)CCCN1CCC2(CCC(c3ccccc3)(N(C)C)CC2)C1` (stereo not drawn), at human μ opiate receptor, the Ki came out at 0.75 nM and the “% inhibition (μ) [1 μM]” value is recorded as 100%. On ORL1 receptor, the Ki worked out at 1.06 nM and the “% inhibition (ORL1) [1 μM]” value is on record as 96%.
On the same counts, the results for `CN(C)C1(c2ccccc2)CCC2(CCN(CCC3CCC3)C2)CC1` (stereo not drawn) are 0.44 nM, 97.5%, 0.7 nM and 96%.
Take `CN(C)C1(c2ccccc2)CCC2(CCN(CCCC3CCC3)C2)CC1` (stereo not drawn): at human μ opiate receptor, the Ki amounted to 0.72 nM and the “% inhibition (μ) [1 μM]” value turned out to be 98%. Further, on ORL1 receptor, the Ki worked out at 1.27 nM and the “% inhibition (ORL1) [1 μM]” value is listed as 97.33%.
On the same counts, the results for `COC1(CC(=O)N2CCC3(CCC(c4ccccc4)(N(C)C)CC3)C2)CC1` (stereo not drawn) are 0.57 nM, 100.5%, 0.38 nM and 96%.
As for `CN(C)C1(c2cccs2)CCC2(CCN(C(=O)CC3(C#N)CCC3)C2)CC1` (stereo not drawn), at human μ opiate receptor, the Ki is 0.39 nM and the “% inhibition (μ) [1 μM]” value came to 100.5%. Besides, on ORL1 receptor, the Ki came to 0.73 nM and the “% inhibition (ORL1) [1 μM]” value stood at 97.5%.
With `COC(C)(C)CCC(=O)N1CCC2(CCC(c3cccs3)(N(C)C)CC2)C1` (stereo not drawn), on human μ opiate receptor, the Ki was determined as 0.62 nM and the “% inhibition (μ) [1 μM]” value is 99.5%. On ORL1 receptor, the Ki was found to be 1.16 nM and the “% inhibition (ORL1) [1 μM]” value was 97%.
As to `COC1(CCC(=O)N2CCC3(CCC(c4ccccc4)(N(C)C)CC3)C2)CC1` (stereo not drawn), at human μ opiate receptor, the Ki turned out to be 0.44 nM and the “% inhibition (μ) [1 μM]” value came out at 101.5%. Also, on ORL1 receptor, the Ki was 0.34 nM and the “% inhibition (ORL1) [1 μM]” value came out at 99.5%.
On to `COC1(CC(=O)N2CCC3(CCC(c4ccccc4)(N(C)C)CC3)C2)CCC1` (stereo not drawn), for which, at human μ opiate receptor, the Ki was determined as 0.55 nM and the “% inhibition (μ) [1 μM]” value worked out at 99.5%. In addition, at ORL1 receptor, the Ki turned out to be 0.58 nM and the “% inhibition (ORL1) [1 μM]” value was 97.5%. The “Tail flick rat, i.v. % MPE (@μg/kg)” value with rats (@10 μg/kg) amounted to 100%@10 % MPE.
Regarding `CN(C)C1(C2CCCC2)CCC2(CC1)CC(=O)N(CC1CCCCC1)C2` (stereo not drawn), on human μ opiate receptor, the Ki is 0.8 nM and the “% inhibition (μ) [1 μM]” value is listed as 99%. Besides, on ORL1 receptor, the Ki amounted to 6.4 nM and the “% inhibition (ORL1) [1 μM]” value amounted to 91%.
For `CN(C)C1(c2ccccc2)CCC2(CCN(C(=O)CCC3CC3)C2)CC1` (stereo not drawn), on human μ opiate receptor, the Ki was determined as 0.48 nM and the “% inhibition (μ) [1 μM]” value is given as 99.5%. Further, on ORL1 receptor, the Ki turned out to be 0.46 nM and the “% inhibition (ORL1) [1 μM]” value amounted to 95.5%.
The like results for `CN(C)C1(c2cccs2)CCC2(CCN(C(=O)CCC(C)(C)C#N)C2)CC1` (stereo not drawn) were, in that order, 0.56 nM, 101%, 1.7 nM and 96.5%.
On the same counts, the results for `CN(C)C1(c2cccs2)CCC2(CCN(CCC3(C#N)CCC3)C2)CC1` (stereo not drawn) are 0.67 nM, 100%, 2.05 nM and 96%.
On the same counts, the results for `COC1(CC(=O)N2CCC3(CCC(c4cccs4)(N(C)C)CC3)C2)CC1` (stereo not drawn) are 0.66 nM, 100.5%, 0.37 nM and 93.5%.
As to `CN(C)C1(C2CCCC2)CCC2(CCN(C(=O)CC3CCC3)C2)CC1` (stereo not drawn), on human μ opiate receptor, the Ki amounted to 0.69 nM and the “% inhibition (μ) [1 μM]” value is 99.5%. At ORL1 receptor, the Ki came out at 6.25 nM and the “% inhibition (ORL1) [1 μM]” value was 90%.
As to `CN(C)C1(c2cccs2)CCC2(CCN(CCC3CCCO3)C2)CC1` (stereo not drawn), on human μ opiate receptor, the Ki worked out at 0.57 nM and the “% inhibition (μ) [1 μM]” value is 96.5%. In addition, on ORL1 receptor, the inhibition constant Ki is 1.14 nM and the “% inhibition (ORL1) [1 μM]” value was found to be 97%.
The like results for `COC1(CCC(=O)N2CCC3(CCC(c4cccs4)(N(C)C)CC3)C2)CCC1` (stereo not drawn) were, in that order, 0.25 nM, 100%, 0.47 nM and 98.5%.
Consider `CN(C)C1(c2cccs2)CCC2(CC1)CC(=O)N(CC1(C#N)CCC1)C2` (stereo not drawn), for which, at human μ opiate receptor, the Ki stood at 0.98 nM and the “% inhibition (μ) [1 μM]” value turned out to be 100%. Also, at ORL1 receptor, the Ki was 0.46 nM and the “% inhibition (ORL1) [1 μM]” value amounted to 98.5%.
The like results for `COC1(CCN2CC3(CCC(c4ccccc4)(N(C)C)CC3)CC2=O)CC1` (stereo not drawn) were, in that order, 0.67 nM, 100%, 0.77 nM and 97%.
Take `CN(C)C1(c2cccs2)CCC2(CCN(C(=O)CCC3CCC3)C2)CC1` (stereo not drawn): at human μ opiate receptor, the Ki was determined as 0.35 nM and the “% inhibition (μ) [1 μM]” value worked out at 99.5%. Further, on ORL1 receptor, the Ki was determined as 0.76 nM and the “% inhibition (ORL1) [1 μM]” value came to 97.5%.
With `CN(C)C1(c2cccs2)CCC2(CCN(C(=O)CC3CCC3)C2)CC1` (stereo not drawn), at human μ opiate receptor, the Ki came to 0.37 nM and the “% inhibition (μ) [1 μM]” value is on record as 99.5%. At ORL1 receptor, the Ki stood at 0.24 nM and the “% inhibition (ORL1) [1 μM]” value stood at 97.5%.
On the same counts, the results for `CN(C)C1(c2cccs2)CCC2(CCN(CCC3(C#N)CC3)C2)CC1` (stereo not drawn) are 0.73 nM, 99.5%, 5.3 nM and 95.5%.
As to `COC1(CCN2CCC3(CCC(c4ccccc4)(N(C)C)CC3)C2)CCC1` (stereo not drawn), at human μ opiate receptor, the Ki came out at 0.69 nM and the “% inhibition (μ) [1 μM]” value is 103.5%. For the same molecule, at ORL1 receptor, the Ki worked out at 0.83 nM and the “% inhibition (ORL1) [1 μM]” value is 98%.
In the case of `COC1(CCN2CC3(CCC(c4ccc(F)s4)(N(C)C)CC3)CC2=O)CC1` (stereo not drawn), on human μ opiate receptor, the Ki was found to be 0.31 nM and the “% inhibition (μ) [1 μM]” value is 99.5%. Also, on ORL1 receptor, the Ki was found to be 1.29 nM and the “% inhibition (ORL1) [1 μM]” value was 95.5%.
The like results for `COC(C)(C)CC(=O)N1CCC2(CCC(c3cccs3)(N(C)C)CC2)C1` (stereo not drawn) were, in that order, 0.73 nM, 100%, 1.1 nM and 94%.
The like results for `CN(C)C1(c2cccs2)CCC2(CCN(C(=O)CCC3CC3)C2)CC1` (stereo not drawn) were, in that order, 0.52 nM, 99%, 0.72 nM and 98%.
The like results for `CN(C)C1(c2ccccc2)CCC2(CCN(C(=O)CCC3(C#N)CCC3)C2)CC1` (stereo not drawn) were, in that order, 0.83 nM, 98.5%, 0.86 nM and 94.5%.
As for `COC1(CCN2CC3(CCC(c4cccs4)(N(C)C)CC3)CC2=O)CC1` (stereo not drawn), on human μ opiate receptor, the Ki was found to be 0.98 nM and the “% inhibition (μ) [1 μM]” value is given as 100.5%. Besides, at ORL1 receptor, the Ki stood at 0.91 nM and the “% inhibition (ORL1) [1 μM]” value amounted to 96.5%. Moreover, the “Tail flick rat, i.v. ED50 rat [μg/kg]” value with rats was determined as 1.45 µg/kg.
As to `CC(C)CCC(=O)N1CCC2(CCC(c3cccs3)(N(C)C)CC2)C1` (stereo not drawn), on human μ opiate receptor, the Ki turned out to be 0.4 nM and the “% inhibition (μ) [1 μM]” value was found to be 100%. In addition, at ORL1 receptor, the Ki came out at 0.44 nM and the “% inhibition (ORL1) [1 μM]” value is given as 93.5%.
In the case of `COC1(CC(=O)N2CCC3(CCC(c4cccs4)(N(C)C)CC3)C2)CCC1` (stereo not drawn), on human μ opiate receptor, the Ki was found to be 0.44 nM and the “% inhibition (μ) [1 μM]” value was 100.5%. In addition, on ORL1 receptor, the Ki stood at 0.47 nM and the “% inhibition (ORL1) [1 μM]” value is reported as 98.5%. Also, in the assay on rats, the “Tail flick rat, i.v. ED50 rat [μg/kg]” value is 1.44 µg/kg.
`CN(C)C1(c2ccccc2)CCC2(CCN(C(=O)CCC(C)(C)C#N)C2)CC1` (stereo not drawn): at human μ opiate receptor, the Ki was found to be 0.94 nM and the “% inhibition (μ) [1 μM]” value stood at 100%. Moreover, at ORL1 receptor, the inhibition constant Ki is 1.5 nM and the “% inhibition (ORL1) [1 μM]” value is 98%.
`CC(C)CCC(=O)N1CCC2(CCC(c3ccccc3)(N(C)C)CC2)C1` (stereo not drawn): on human μ opiate receptor, the Ki was determined as 0.36 nM and the “% inhibition (μ) [1 μM]” value was 100%. Besides, at ORL1 receptor, the Ki came out at 0.3 nM and the “% inhibition (ORL1) [1 μM]” value was determined as 98.5%.
The like results for `CN(C)C1(c2ccccc2)CCC2(CCN(C(=O)CCC3CCC3)C2)CC1` (stereo not drawn) were, in that order, 0.53 nM, 99.5%, 0.5 nM and 93.5%.
On the same counts, the results for `COC1(CCN2CCC3(CCC(c4cccs4)(N(C)C)CC3)C2)CCC1` (stereo not drawn) are 0.82 nM, 103%, 0.95 nM and 98%.
Regarding `CC(C)CCN1CC2(CCC(c3ccccc3)(N(C)C)CC2)CC1=O` (stereo not drawn), at human μ opiate receptor, the Ki turned out to be 0.5 nM and the “% inhibition (μ) [1 μM]” value stood at 99%. For the same molecule, on ORL1 receptor, the Ki amounted to 1.99 nM and the “% inhibition (ORL1) [1 μM]” value turned out to be 93%.
Take `CN(C)C1(c2cccs2)CCC2(CCN(C(=O)CCC3(C#N)CCC3)C2)CC1` (stereo not drawn): at human μ opiate receptor, the Ki came to 0.37 nM and the “% inhibition (μ) [1 μM]” value was 101%. At ORL1 receptor, the Ki is 0.86 nM and the “% inhibition (ORL1) [1 μM]” value is listed as 95.5%.
As for `COC(C)(C)CCN1CC2(CCC(c3ccc(Cl)s3)(N(C)C)CC2)CC1=O` (stereo not drawn), on human μ opiate receptor, the Ki was 0.41 nM and the “% inhibition (μ) [1 μM]” value is 101.5%. Also, at ORL1 receptor, the Ki was found to be 2.1 nM and the “% inhibition (ORL1) [1 μM]” value came to 91%.
On to `COC1(CCC(=O)N2CCC3(CCC(c4cccs4)(N(C)C)CC3)C2)CC1` (stereo not drawn), for which the Ki was found to be 0.44 nM at human μ opiate receptor and 0.51 nM at ORL1 receptor. For the same molecule, the “% inhibition (μ) [1 μM]” value at human μ opiate receptor is 102.5%.
On to `CCC(O)(CC)CCN1CCC2(CCC(c3cccs3)(N(C)C)CC2)C1` (stereo not drawn), for which, on human μ opiate receptor, the Ki was 0.72 nM and the “% inhibition (μ) [1 μM]” value came out at 101.5%. Moreover, at ORL1 receptor, the Ki was 0.34 nM and the “% inhibition (ORL1) [1 μM]” value turned out to be 98%.
The like results for `COC1(CCC(=O)N2CCC3(CCC(c4ccccc4)(N(C)C)CC3)C2)CCC1` (stereo not drawn) were, in that order, 0.44 nM, 100.5%, 0.52 nM and 99%.
On the same counts, the results for `CC(C)CCN1CC2(CCC(c3cccs3)(N(C)C)CC2)CC1=O` (stereo not drawn) are 0.43 nM, 97.5%, 0.53 nM and 93.5%.
